Laboratory results published in PubChem BioAssay (NCI).
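Grown in 96-well plates, cells were treated for 48 hours with each compound at five concentrations. Insufficient inhibition: endpoint recorded as highest concentration tested. TGI denotes the concentration required for complete inhibition of growth.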

Assays:
Test in all cases: NCI tumour cell line growth inhibition, 48 h
K-562 leukemia = system: K-562 leukemia
PC-3 prostate = system: PC-3 prostate
SNB-19 CNS = system: SNB-19 CNS
SW-620 colon = system: SW-620 colon
UO-31 renal = system: UO-31 renal
SF-539 CNS = system: SF-539 CNS
RPMI-8226 leukemia = system: RPMI-8226 leukemia
U251 CNS = system: U251 CNS
MALME-3M melanoma = system: MALME-3M melanoma
A549 NSCLC = system: A549 NSCLC
DU-145 prostate = system: DU-145 prostate
SK-MEL-5 melanoma = system: SK-MEL-5 melanoma
UACC-62 melanoma = system: UACC-62 melanoma
NCI-H226 lung = system: NCI-H226 lung
HT29 colon = system: HT29 colon
SF-295 CNS = system: SF-295 CNS
NCI-H522 lung = system: NCI-H522 lung
COLO 205 colon = system: COLO 205 colon
A498 renal = system: A498 renal
UACC-257 melanoma = system: UACC-257 melanoma
MDA-MB-435 = system: MDA-MB-435
SN12C renal = system: SN12C renal
OVCAR-4 ovarian = system: OVCAR-4 ovarian
TK-10 renal = system: TK-10 renal
LOX IMVI melanoma = system: LOX IMVI melanoma
IGROV1 ovarian = system: IGROV1 ovarian
CCRF-CEM leukemia = system: CCRF-CEM leukemia
ACHN renal = system: ACHN renal
SF-268 CNS = system: SF-268 CNS
SK-OV-3 ovarian = system: SK-OV-3 ovarian
NCI/ADR-RES ovarian = system: NCI/ADR-RES ovarian
NCI-H23 lung = system: NCI-H23 lung
SK-MEL-28 melanoma = system: SK-MEL-28 melanoma
OVCAR-5 ovarian = system: OVCAR-5 ovarian
OVCAR-3 ovarian = system: OVCAR-3 ovarian
HCT-116 colon = system: HCT-116 colon
SK-MEL-2 melanoma = system: SK-MEL-2 melanoma
HOP-62 NSCLC = system: HOP-62 NSCLC
SR leukemia = system: SR leukemia
HCT-15 colon = system: HCT-15 colon
HL-60(TB) leukemia = system: HL-60(TB) leukemia
M14 melanoma = system: M14 melanoma
T-47D breast = system: T-47D breast
OVCAR-8 ovarian = system: OVCAR-8 ovarian
786-0 renal = system: 786-0 renal
MDA-MB-231 breast = system: MDA-MB-231 breast
MCF7 breast = system: MCF7 breast
HS 578T breast = system: HS 578T breast
BT-549 breast = system: BT-549 breast
KM12 colon = system: KM12 colon
EKVX NSCLC = system: EKVX NSCLC
CAKI-1 renal = system: CAKI-1 renal
MOLT-4 leukemia = system: MOLT-4 leukemia

`CN(C(=O)Cc1ccc(Cl)c(Cl)c1)[C@H]1CCCC[C@@H]1N1CC=CC1` was tested, and the TGI (K-562 leukemia) was > 100 µM, the TGI (PC-3 prostate) was > 100 µM and the TGI (SNB-19 CNS) was > 100 µM. The TGI (SW-620 colon) was > 100 µM, the TGI (UO-31 renal) was > 100 µM and the TGI (SF-539 CNS) was > 100 µM. The TGI (RPMI-8226 leukemia) was > 100 µM, the TGI (U251 CNS) was > 100 µM and the TGI (MALME-3M melanoma) was 45.1 µM. The TGI (A549 NSCLC) was > 100 µM, the TGI (DU-145 prostate) was > 100 µM and the TGI (SK-MEL-5 melanoma) was 39.2 µM. The TGI (UACC-62 melanoma) was 98.4 µM, the TGI (NCI-H226 lung) was > 100 µM and the TGI (HT29 colon) was > 100 µM. For the same compound, the TGI (SF-295 CNS) was 74 µM, the TGI (NCI-H522 lung) was > 100 µM and the TGI (COLO 205 colon) was 87.4 µM. The TGI (A498 renal) was > 100 µM, the TGI (UACC-257 melanoma) was 35.1 µM and the TGI (MDA-MB-435) was > 100 µM. For the same compound, the TGI (SN12C renal) was > 100 µM, the TGI (OVCAR-4 ovarian) was > 100 µM and the TGI (TK-10 renal) was > 100 µM. The TGI (LOX IMVI melanoma) was > 100 µM, the TGI (IGROV1 ovarian) was > 100 µM and the TGI (CCRF-CEM leukemia) was > 100 µM. For the same compound, the TGI (ACHN renal) was > 100 µM, the TGI (SF-268 CNS) was > 100 µM and the TGI (SK-OV-3 ovarian) was > 100 µM. The TGI (NCI/ADR-RES ovarian) was > 100 µM, the TGI (NCI-H23 lung) was > 100 µM and the TGI (SK-MEL-28 melanoma) was 82.9 µM. The TGI (OVCAR-5 ovarian) was > 100 µM, the TGI (OVCAR-3 ovarian) was > 100 µM and the TGI (HCT-116 colon) was > 100 µM. The TGI (SK-MEL-2 melanoma) was > 100 µM, the TGI (HOP-62 NSCLC) was > 100 µM and the TGI (SR leukemia) was > 100 µM. The TGI (HCT-15 colon) was > 100 µM, the TGI (HL-60(TB) leukemia) was > 100 µM and the TGI (M14 melanoma) was > 100 µM. For the same compound, the TGI (T-47D breast) was > 100 µM, the TGI (OVCAR-8 ovarian) was > 100 µM and the TGI (786-0 renal) was > 100 µM. For the same compound, the TGI (MDA-MB-231 breast) was > 100 µM, the TGI (MCF7 breast) was > 100 µM and the TGI (HS 578T breast) was > 100 µM. For the same compound, the TGI (BT-549 breast) was > 100 µM, the TGI (KM12 colon) was > 100 µM and the TGI (EKVX NSCLC) was > 100 µM. The TGI (CAKI-1 renal) was > 100 µM and the TGI (MOLT-4 leukemia) was > 100 µM.
